Reference: patent EP1200093B1, “USE OF 2-AMINO-4-(4-FLUORONAPHTH-1-YL)-6-ISOPROPYLPYRIMIDINE IN THE TREATMENT OF GI DISORDERS” (priority 1999, dated 2001)

Sequences of proteins named here, by UniProt entry; tags and fusion partners are left off.
UniProt P41595, whole entry: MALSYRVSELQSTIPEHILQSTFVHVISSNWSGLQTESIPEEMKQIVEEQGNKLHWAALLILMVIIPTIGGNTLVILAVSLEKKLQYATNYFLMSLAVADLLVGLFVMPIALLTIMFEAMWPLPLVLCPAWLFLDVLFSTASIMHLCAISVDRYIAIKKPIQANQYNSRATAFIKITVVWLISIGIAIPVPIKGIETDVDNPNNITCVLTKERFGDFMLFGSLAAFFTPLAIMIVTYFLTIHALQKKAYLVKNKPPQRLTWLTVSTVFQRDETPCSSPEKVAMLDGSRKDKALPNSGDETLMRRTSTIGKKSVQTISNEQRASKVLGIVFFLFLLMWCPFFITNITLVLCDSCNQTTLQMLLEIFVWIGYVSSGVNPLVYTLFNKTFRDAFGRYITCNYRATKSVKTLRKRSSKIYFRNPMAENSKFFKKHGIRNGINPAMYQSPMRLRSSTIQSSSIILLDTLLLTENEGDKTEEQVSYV

Biological target: 5-HT receptor in human colon longitudinal muscle (Homo sapiens, UniProt P41595)
Test: cell-based

CSc1ccc2c(c1)C(N1CCN(C)CC1)Cc1ccccc1S2 (stereo not shown) [Methiothepin]
Kb: 31.6 nM
